Tests used:
hCA I = hCA I (Homo sapiens, UniProt P00915); details: for IC50: read-out: IC50 hCA I, purified from human erythrocytes, PNA substrate, 22 °C; for Ki: read-out: Ki hCA I, three concentrations used
hCA II = hCA II (Homo sapiens, UniProt P00918); details: for IC50: read-out: IC50 hCA II, purified from human erythrocytes, PNA substrate, 22 °C; for Ki: read-out: Ki hCA II, three concentrations used
AChE = AChE (Homo sapiens, UniProt P22303); details: for AChE/BChE (proportion of AChE to BChE, selectivity): ratio of Ki AChE to Ki BChE; for IC50: read-out: IC50 AChE, Ellman, Tris/HCl pH 8.0, 25 °C; for Ki: read-out: Ki AChE
BChE = BChE (Homo sapiens, UniProt P06276); details: for IC50: read-out: IC50 BChE, Ellman, Tris/HCl pH 8.0, 25 °C; for Ki: read-out: Ki BChE

Protein sequences, listed by entry. Tags and fused reporters are not part of them. Residues count along the entry.
UniProt P00915, whole entry: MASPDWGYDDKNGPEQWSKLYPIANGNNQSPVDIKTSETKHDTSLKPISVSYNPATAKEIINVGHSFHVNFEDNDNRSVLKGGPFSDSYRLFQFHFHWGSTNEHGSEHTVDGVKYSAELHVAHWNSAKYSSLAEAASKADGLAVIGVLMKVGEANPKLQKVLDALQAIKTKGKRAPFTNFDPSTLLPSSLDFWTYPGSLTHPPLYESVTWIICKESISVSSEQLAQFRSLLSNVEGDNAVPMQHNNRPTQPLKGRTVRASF
UniProt P22303, 32-614 limits assumed: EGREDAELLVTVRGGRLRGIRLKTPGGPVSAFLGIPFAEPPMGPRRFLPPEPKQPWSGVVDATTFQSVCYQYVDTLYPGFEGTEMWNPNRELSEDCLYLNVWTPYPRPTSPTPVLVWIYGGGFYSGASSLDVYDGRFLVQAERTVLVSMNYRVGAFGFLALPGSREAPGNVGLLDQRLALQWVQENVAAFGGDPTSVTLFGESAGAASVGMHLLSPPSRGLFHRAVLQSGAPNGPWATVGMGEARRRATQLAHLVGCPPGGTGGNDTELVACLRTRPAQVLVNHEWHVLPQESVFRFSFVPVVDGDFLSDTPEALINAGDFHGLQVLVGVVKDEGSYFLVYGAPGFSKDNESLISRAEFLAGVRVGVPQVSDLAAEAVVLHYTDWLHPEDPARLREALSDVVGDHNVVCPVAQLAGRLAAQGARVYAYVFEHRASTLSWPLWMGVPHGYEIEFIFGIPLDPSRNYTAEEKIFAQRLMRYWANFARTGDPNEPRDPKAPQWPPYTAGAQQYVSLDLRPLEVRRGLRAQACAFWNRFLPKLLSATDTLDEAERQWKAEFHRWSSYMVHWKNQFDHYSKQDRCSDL
UniProt P06276, 29-602 limits assumed: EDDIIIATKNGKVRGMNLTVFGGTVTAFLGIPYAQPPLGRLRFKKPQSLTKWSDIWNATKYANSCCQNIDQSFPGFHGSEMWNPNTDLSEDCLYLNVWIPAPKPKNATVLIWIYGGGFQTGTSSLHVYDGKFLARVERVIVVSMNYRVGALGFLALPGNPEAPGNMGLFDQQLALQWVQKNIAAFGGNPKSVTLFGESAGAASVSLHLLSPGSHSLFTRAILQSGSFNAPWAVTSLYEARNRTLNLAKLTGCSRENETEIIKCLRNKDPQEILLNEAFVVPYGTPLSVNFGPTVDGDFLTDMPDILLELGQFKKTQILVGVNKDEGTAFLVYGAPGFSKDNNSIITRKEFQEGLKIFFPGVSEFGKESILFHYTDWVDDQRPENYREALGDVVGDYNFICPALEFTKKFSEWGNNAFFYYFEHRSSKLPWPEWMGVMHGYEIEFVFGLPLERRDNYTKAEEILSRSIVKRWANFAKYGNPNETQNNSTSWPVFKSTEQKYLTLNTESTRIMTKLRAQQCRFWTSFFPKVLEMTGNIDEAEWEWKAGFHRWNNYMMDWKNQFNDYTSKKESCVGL

Structure (SMILES)	IC50 (hCA I) [nM]	Ki (hCA I) [nM]	IC50 (hCA II) [nM]	Ki (hCA II) [nM]	AChE/BChE (proportion of AChE to BChE, selectivity) (AChE)	IC50 (AChE) [nM]	Ki (AChE) [nM]	IC50 (BChE) [nM]	Ki (BChE) [nM]
S=c1sc2ccccc2n1CN1CCOCC1 [Compound 1, N-oxazinomethylbenzothiazoline-2-thione]	83	106	89	96	0.822	54	37	75	45
COCn1c(=S)oc2ccccc21	112	118	172	137	0.584	89	45	133	77
S=c1sc2ccccc2n1CN1CCOC1	79	77	114	107	0.647	39	33	89	51
S=c1oc2ccccc2n1CN1CCCCC1	79	82	116	132	0.701	65	40	79	57
S=c1oc2ccccc2n1CN1CCCOC1	98	99	137	135	1.22	50	61	94	50
CCOCn1c(=S)oc2ccccc21	119	95	141	146	0.852	63	75	93	88
